From PubChem BioAssay AID2221 (Broad Institute, 2009)
The entries are a selection whose mix differs from that of the whole data set. Some results for these compounds are left out of this collection, so the calls shown say nothing about other tests. Calls of active or inactive are those of the source. Rule as the data show it: active = inhibition above about 30%; inconclusive = no clear call, values can overlap the other calls; inactive = below that.

Protein sequences, listed by entry. Tags and fused reporters are not part of them.
UniProt P9WHJ3, whole entry: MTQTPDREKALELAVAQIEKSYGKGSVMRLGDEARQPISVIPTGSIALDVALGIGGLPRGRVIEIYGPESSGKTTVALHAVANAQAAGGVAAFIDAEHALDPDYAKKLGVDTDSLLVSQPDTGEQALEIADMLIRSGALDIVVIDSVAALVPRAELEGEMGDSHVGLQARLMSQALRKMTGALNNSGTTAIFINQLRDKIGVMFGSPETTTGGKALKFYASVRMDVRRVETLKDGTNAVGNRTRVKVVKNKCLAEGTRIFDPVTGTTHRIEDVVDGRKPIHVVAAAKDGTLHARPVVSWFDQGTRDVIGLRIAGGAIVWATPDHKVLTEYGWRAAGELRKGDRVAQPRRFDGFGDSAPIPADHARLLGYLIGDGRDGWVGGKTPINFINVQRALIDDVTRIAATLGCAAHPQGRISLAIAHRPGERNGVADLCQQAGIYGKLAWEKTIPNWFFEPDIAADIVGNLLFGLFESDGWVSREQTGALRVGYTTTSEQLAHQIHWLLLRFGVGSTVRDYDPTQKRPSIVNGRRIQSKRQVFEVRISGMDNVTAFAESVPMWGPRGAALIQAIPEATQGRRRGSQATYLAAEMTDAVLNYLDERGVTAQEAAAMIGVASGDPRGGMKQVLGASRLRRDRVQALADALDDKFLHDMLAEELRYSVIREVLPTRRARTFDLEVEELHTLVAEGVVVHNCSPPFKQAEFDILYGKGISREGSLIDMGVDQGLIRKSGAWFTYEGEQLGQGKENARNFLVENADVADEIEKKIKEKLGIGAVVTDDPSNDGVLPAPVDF

target: Protein RecA (Mycobacterium tuberculosis (strain ATCC 25618 / H37Rv)) (UniProt P9WHJ3); assay: Mtb RecA intein splicing inhibitors, primary screen, biochemical, fluorescence, HTS (AID 2221); settings: cell-free RecA intein splicing, active compounds read high, concentration not given here;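 also: 0% = vehicle wells and 100% = reference inhibitor control wells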

Compound | inhibition
CN(C)c1cccc(C(=O)NCC2(N(C)C)CCCCC2)c1 | inactive: -2.6%
CC(C)Oc1ccc(C(=O)NCC2(N(C)C)CCCCC2)cc1 | inactive: -1.91%
COc1ccc(Br)c(C(=O)NCC2(N3CCCCC3)CCCCC2)c1 | inactive: 1.25%
O=C(OC1CN2CCC1CC2)C(CO)(c1ccccc1)c1ccccc1 (stereo not drawn) | inactive: -0.0365%
O=C(NCC1(N2CCCCC2)CCCCC1)c1cccc(Cl)c1 | inactive: 2.08%
COc1ccc(Cl)cc1C(=O)NCC1(N(C)C)CCCCC1 | inactive: 0.0281%
COc1cccc(C(=O)NCC2(N3CCCCC3)CCCCC2)c1 | inactive: -0.969%
COc1cc(C(=O)NCC2(N(C)C)CCCCC2)c([N+](=O)[O-])cc1OC | inactive: -0.241%
CN(C)C1(CNC(=O)c2ccc(Br)cc2)CCCCC1 | inactive: -0.502%
O=C(NCC1(N2CCCCC2)CCCCC1)c1cccc(Br)c1 | inactive: 0.543%
Cc1cc(C(=O)NCC2(N3CCCCC3)CCCCC2)ccc1[N+](=O)[O-] | inactive: -0.466%
CCN1CCCC(OC(=O)C2(O)c3ccccc3C=Cc3ccccc32)C1 (stereo not drawn) | inactive: -6.34%
COc1ccc(C(=O)NCC2(N(C)C)CCCCC2)cc1 | inactive: -1.38%
O=C(NCC1(N2CCCCC2)CCCCC1)c1cc(F)c(F)cc1Cl | inactive: 0.437%
C=CCN1CCN(CCOC(=O)C(O)(c2ccccc2)c2ccccc2)CC1 | inactive: -0.408%
CN(C)C1CCCC1OC(=O)C(O)(c1ccccc1)c1ccccc1 (stereo not drawn) | inactive: -1.3%
CN(C)c1ccc(C(=O)NCC2(N(C)C)CCCCC2)cc1 | inactive: -1.69%
Cc1ccccc1C(=O)NCC1(N2CCCCC2)CCCCC1 | inactive: 3.09%
CC(C)N1C(=O)CC2(CCN(CCOC(=O)C(O)(c3ccccc3)c3ccccc3)CC2)C1=O | inactive: 0.492%
COc1cc(SC)ccc1C(=O)NCC1(N(C)C)CCCCC1 | inactive: -1.48%
CCN(CC)CC(C)C(C)OC(=O)C(O)(c1ccccc1)c1ccccc1 (stereo not drawn) | inactive: -0.532%
CN1[C@@H]2CC[C@H]1CC(OC(=O)C(O)(c1ccccc1)c1ccccc1)C2 (stereo partly drawn) | inactive: -0.157%
O=C(NCC1(N2CCCCC2)CCCCC1)c1cc([N+](=O)[O-])ccc1Cl | inactive: 2.14%
